The values below come from patent US11547697B2, “Heterocyclic compounds and uses thereof” (MILLENNIUM PHARMACEUTICALS, INC., priority 2009, dated 2023).

The chains behind the UniProt entries cited, without tags or fusion partners. Where a name states a change or a piece, a line headed by the entry shows the natural chain unless it says otherwise.
UniProt P42336, whole entry: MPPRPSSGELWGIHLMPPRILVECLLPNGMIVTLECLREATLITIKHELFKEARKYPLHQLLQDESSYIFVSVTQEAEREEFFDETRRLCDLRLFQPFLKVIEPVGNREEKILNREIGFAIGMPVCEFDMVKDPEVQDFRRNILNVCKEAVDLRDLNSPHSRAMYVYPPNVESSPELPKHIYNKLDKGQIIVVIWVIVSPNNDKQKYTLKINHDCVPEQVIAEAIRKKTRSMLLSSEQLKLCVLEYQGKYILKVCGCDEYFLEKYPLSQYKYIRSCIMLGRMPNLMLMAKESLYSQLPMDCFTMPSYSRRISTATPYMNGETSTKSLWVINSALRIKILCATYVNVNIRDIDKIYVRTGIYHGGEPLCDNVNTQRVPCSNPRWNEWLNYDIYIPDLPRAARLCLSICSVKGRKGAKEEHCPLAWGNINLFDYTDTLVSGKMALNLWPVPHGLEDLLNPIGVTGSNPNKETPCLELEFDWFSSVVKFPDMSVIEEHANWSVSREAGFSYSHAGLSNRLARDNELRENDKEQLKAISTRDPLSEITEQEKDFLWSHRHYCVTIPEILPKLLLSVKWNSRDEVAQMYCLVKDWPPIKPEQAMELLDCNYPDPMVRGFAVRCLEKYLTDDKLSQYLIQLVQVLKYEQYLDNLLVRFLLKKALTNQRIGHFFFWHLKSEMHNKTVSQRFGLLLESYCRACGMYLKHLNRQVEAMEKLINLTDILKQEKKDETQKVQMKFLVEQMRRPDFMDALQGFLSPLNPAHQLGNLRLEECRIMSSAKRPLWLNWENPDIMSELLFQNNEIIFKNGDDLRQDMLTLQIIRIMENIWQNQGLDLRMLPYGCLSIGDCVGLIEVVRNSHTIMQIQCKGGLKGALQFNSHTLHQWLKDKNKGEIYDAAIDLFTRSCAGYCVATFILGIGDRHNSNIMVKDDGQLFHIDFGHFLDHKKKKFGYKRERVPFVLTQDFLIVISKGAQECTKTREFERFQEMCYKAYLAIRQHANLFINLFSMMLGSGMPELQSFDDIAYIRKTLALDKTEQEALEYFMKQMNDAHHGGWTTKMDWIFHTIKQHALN
UniProt P42338: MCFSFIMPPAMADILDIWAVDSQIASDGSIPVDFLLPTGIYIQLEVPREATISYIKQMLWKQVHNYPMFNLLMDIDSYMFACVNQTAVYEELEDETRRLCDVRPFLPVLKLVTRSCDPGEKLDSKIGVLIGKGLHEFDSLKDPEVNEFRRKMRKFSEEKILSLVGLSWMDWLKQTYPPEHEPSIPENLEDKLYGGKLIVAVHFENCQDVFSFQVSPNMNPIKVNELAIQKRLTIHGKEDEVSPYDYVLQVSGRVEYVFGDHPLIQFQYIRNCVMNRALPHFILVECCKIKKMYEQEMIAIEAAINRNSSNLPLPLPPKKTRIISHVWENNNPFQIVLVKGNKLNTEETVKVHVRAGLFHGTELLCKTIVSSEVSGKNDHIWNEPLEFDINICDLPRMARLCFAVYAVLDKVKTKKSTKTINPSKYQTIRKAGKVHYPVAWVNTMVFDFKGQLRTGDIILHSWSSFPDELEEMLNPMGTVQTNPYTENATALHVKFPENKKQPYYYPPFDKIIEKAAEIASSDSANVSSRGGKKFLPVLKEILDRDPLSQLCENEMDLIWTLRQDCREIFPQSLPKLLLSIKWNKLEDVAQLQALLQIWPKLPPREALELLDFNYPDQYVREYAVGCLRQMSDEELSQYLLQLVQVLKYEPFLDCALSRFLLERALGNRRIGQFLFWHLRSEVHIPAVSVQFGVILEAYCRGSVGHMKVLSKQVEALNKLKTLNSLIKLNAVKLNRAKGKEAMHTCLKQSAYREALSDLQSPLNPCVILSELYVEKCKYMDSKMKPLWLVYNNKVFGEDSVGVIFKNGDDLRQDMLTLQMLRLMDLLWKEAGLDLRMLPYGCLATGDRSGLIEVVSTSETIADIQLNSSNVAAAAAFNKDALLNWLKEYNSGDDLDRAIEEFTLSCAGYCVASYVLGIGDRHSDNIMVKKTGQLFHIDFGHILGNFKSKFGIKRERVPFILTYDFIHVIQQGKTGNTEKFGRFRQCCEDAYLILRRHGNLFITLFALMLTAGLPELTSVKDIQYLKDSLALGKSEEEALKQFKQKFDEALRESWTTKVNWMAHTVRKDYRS
UniProt O00329: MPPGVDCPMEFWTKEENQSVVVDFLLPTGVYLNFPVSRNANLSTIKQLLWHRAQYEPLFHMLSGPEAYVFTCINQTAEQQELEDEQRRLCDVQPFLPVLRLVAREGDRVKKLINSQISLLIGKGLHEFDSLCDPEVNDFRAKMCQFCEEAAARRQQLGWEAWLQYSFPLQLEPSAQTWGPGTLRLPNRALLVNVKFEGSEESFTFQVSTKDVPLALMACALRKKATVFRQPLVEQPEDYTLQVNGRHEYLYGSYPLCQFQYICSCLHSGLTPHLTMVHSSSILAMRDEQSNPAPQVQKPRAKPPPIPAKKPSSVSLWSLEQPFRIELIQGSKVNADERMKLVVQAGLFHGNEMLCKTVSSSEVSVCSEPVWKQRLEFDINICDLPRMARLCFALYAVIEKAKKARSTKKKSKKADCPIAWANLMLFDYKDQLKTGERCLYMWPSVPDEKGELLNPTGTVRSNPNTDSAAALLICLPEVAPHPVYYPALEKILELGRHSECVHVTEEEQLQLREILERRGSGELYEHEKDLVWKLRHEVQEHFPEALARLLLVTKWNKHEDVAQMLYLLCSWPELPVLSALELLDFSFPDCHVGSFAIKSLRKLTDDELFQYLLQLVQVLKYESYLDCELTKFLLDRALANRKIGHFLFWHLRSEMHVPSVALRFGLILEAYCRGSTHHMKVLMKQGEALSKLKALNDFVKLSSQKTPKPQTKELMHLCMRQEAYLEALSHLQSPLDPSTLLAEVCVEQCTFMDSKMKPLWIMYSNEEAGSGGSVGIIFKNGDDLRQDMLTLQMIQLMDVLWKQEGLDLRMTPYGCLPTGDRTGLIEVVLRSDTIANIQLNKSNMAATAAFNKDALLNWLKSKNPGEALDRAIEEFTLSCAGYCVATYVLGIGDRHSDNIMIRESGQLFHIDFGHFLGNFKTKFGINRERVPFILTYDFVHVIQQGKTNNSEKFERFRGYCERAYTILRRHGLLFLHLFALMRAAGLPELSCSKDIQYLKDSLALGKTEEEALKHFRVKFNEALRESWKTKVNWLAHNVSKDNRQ
UniProt P48736: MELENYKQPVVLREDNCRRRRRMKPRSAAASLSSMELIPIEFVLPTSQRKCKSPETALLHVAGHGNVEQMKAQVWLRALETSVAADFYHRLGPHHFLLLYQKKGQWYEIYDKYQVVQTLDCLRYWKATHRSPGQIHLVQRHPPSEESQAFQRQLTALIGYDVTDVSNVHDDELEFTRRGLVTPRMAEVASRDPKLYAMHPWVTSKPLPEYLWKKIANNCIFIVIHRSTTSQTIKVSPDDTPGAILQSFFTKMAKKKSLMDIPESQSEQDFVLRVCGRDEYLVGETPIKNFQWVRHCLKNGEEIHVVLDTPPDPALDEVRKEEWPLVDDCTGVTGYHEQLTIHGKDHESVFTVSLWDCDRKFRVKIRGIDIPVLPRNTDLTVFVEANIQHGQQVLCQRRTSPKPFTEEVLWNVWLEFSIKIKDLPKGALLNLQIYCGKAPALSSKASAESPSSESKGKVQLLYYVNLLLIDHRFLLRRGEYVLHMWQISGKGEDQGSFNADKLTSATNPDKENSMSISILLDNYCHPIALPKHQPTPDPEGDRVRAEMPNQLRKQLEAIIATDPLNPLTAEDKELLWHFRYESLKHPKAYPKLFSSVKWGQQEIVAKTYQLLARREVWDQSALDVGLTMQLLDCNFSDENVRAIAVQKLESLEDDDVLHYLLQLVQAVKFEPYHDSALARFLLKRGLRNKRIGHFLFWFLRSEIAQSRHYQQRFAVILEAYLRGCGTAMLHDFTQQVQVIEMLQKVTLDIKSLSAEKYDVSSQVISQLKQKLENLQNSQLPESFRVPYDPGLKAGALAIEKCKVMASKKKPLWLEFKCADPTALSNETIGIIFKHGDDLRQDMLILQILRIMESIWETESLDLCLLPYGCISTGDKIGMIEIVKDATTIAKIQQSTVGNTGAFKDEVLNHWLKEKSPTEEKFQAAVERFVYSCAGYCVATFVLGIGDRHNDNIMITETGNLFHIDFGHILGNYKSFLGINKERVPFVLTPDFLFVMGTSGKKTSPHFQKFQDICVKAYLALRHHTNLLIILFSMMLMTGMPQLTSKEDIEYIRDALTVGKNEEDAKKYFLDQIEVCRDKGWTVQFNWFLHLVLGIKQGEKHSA

In general, IC50 refers to the point on the concentration scale where inhibition reaches its midpoint.

Common to all, as to assay type: biochemical
One assay addresses p110α/p85α (Homo sapiens (Human), UniProt P42336). The assay can be described thus: PI 3-Kinase (human) HTRF assay, p110α/p85α. The conditions noted are these: read-out: PI3K α IC50. From the text: (§1) Both percent inhibition and IC50 for DYRK1A, HIPK3, and CLK1 kinases are also provided.
On the technique in general: In TR-FRET formats the signal depends on donor and acceptor labels being close together.

The target in the next assay is p110β/p85α (Homo sapiens (Human), UniProt P42338). In words: PI 3-Kinase (human) HTRF assay, p110β/p85α. Particulars: read-out: PI3K β IC50.
From the text: as §1

The target in the next assay is p110δ/p85α (Homo sapiens (Human), UniProt O00329). The assay can be described thus: PI 3-Kinase (human) HTRF assay, p110δ/p85α. The conditions noted are these: read-out: PI3K δ IC50.
The next assay deals with p110γ (Homo sapiens (Human), UniProt P48736). The assay can be described thus: PI 3-Kinase (human) HTRF assay, p110γ. The conditions noted are these: read-out: PI3K γ IC50.
Another assay deals with recombinant mTOR (Homo sapiens (Human), UniProt P42345). In words: mTOR inhibition assay (radiometric or LanthaScreen TR-FRET). The conditions noted are these: read-out: MTORC IC50.

Bounds are passed on as bounds.

As for `Nc1nc2cc(-c3ccc4ncnc(N5CCOCC5)c4c3)ccc2o1` [compound 22], the IC50 on p110α/p85α is below 100 nM; on p110β/p85α it was below 100 nM; on p110δ/p85α, below 100 nM; on p110γ, below 100 nM; at recombinant mTOR, below 1000 nM.
